Entries after “also recorded” stand apart in the source; their conditions may differ.
Test system: rheumatoid arthritis patients
Experiment: Double-blind clinical trial of 10-deazaaminopterin versus methotrexate in rheumatoid arthritis: efficacy evaluation
Format: in vivo, human
Conditions: double blind trial in humans

With `Nc1nc(N)c2nc(CCc3ccc(C(=O)NC(CCC(=O)O)C(=O)O)cc3)cnc2n1` (stereo not shown) [10-deazaaminopterin] the “Efficacy versus methotrexate in rheumatoid arthritis (in words)” value was “at least equally effective in all respects to methotrexate in the treatment of rheumatoid arthritis, and clearly superior to methotrexate in controlling pain, joint stiffness and in improving grip strength; also recorded: equally effective as methotrexate and in certain clinical parameters such as grip strength, pain and morning stiffness superior to methotrexate”.

From US5030634A, “10-deazaaminopterin: a new arthritis remittive drug” (priority 1990, dated 1991)
